SMILES strings stand for the structures.

A short description of this assay: Selectivity index, ratio of IC50 for human recombinant CDK5/p25 to porcine brain GSK3alpha/beta.
For `O=C(Nc1cnccn1)Nc1cccc2c1C1CC3(CCN1C2=O)SCCS3` (centres undefined), the Ratio IC50 was found to be 3.4. As for `Cc1cnc(NC(=O)Nc2cccc3c2C2CC4(CCN2C3=O)SCCS4)cn1` (centres undefined), the figure is 4. Regarding `O=C(Nc1cnccn1)Nc1cccc2c1[C@@H]1C[C@H](O)CCN1C2=O` (relative stereo), the Ratio IC50 was 2.6. As for `COc1cc(NC(=O)Nc2cccc3c2[C@@H]2C[C@H](O)CCN2C3=O)nc2ccccc12` (relative stereo), the figure is 140.
